# Molecular target: T1, histamine H3 -receptor (Rattus norvegicus, UniProt Q9QYN8)
# By UniProt entry, the sequences of proteins in these tests, tags left out. Where a name states a change or a piece, a line headed by the entry shows the natural chain unless it says otherwise.
# UniProt Q9QYN8: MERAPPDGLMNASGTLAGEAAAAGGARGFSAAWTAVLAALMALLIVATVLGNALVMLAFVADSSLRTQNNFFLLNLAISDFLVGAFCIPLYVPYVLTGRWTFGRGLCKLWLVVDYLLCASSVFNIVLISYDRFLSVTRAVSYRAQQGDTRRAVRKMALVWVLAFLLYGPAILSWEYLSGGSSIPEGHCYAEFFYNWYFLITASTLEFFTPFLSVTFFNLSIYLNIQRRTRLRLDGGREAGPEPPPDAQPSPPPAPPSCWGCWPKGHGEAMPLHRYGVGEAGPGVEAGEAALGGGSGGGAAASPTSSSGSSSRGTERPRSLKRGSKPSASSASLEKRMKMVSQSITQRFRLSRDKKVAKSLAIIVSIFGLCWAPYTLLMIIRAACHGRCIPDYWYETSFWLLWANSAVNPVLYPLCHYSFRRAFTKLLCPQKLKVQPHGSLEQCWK
# T1 construct: Van der Werf et al., Agents and Actions 20, 3/4 (1987) p; 239-243; from tissue
# Assay: Agonistic activity on the H3-receptor, rat cortex
# Type: cell-based
# Settings: Table 3, agonistic activity, read-out: pD2 (converted)
smiles,measurement,value
"N=C(N)SCCc1cnc[nH]1 [VUF 8325, S-[2-(4-imidazolyl)ethyl]isothiourea]",EC50,0.501 nM
